This passage reports inhibition results from publication PMC2816653, “Pre-clinical evaluation of cyclin-dependent kinase 2 and 1 inhibition in anti-estrogen-sensitive and resistant breast cancer cells” (British Journal of Cancer, 2009).

Protein sequences, listed by entry. Tags and fused reporters are not part of them. Lines headed by an entry give the natural chain unless they say otherwise; changes in a name come on top.
UniProt P50613: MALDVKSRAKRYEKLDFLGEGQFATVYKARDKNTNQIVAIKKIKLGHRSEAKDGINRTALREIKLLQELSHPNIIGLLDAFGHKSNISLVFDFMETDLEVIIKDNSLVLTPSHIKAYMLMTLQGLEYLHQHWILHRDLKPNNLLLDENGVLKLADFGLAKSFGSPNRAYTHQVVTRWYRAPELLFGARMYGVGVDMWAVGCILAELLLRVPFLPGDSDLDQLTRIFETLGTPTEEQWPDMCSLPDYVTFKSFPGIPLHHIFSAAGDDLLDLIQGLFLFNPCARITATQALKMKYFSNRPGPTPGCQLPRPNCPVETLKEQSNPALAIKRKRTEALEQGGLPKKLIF
UniProt P11802: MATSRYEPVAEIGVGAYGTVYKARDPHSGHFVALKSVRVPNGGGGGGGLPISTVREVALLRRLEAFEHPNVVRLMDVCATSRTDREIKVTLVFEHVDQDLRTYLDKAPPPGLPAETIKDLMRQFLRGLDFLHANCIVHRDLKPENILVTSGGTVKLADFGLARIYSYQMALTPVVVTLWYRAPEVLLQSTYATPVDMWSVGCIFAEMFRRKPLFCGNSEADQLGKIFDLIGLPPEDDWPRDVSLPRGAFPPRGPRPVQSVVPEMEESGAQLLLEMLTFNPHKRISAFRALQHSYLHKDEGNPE

In general, inhibition refers to the relative decrease from the control value, in per cent.

One assay deals with CDK7/cyclin H (Homo sapiens, UniProt P50613). Kind of assay: biochemical. On the set-up: in vitro kinase inhibition assay. As to conditions: read-out: NU2058 % inhibition.
The next assay concerns the target CDK4/cyclin D1 (Homo sapiens, UniProt P11802). Kind of assay: biochemical. On the set-up: in vitro kinase inhibition assay. As to conditions: read-out: NU2058 % inhibition.

Structures are written as SMILES.

Regarding `Nc1nc(OCC2CCCCC2)c2nc[nH]c2n1` [NU2058], the inhibition at 100 µM is 44% on CDK7/cyclin H and 33% on CDK4/cyclin D1.
